Assay results as given in patent US10066238B2, “Methods for producing antibodies” (priority 2013, dated 2018).

System: ZM214M.PL15 pseudovirus (clade C)
Test: HIV-1 neutralization assay (Env-pseudotyped virus, Luc reporter)
Assay type: cell-based
Conditions: mean ± SEM; for IC50: TZM-b1 cells

**Q.** With `C[C@H](Cn1cnc2c(N)ncnc21)OCP(=O)(O)O` [TFV, tenofovir] as the compound, how does the IC50 (TFV concentration in combination, read-out: IC50 in a respective combination with VRC01p) read?
**A.** The IC50 was 980 ± 230 nM.

**Q.** What about the IC50 (TFV, read-out: IC50 when used individually) of the same compound?
**A.** Its IC50 is 4550 ± 2490 nM.

**Q.** What about the “dose reduction index (DRI) in a respective combination with VRC01p” value of the same compound?
**A.** Its value is 1.92 ± 0.43.

Where two headings read alike, the source gives them in different places.
